How the values were obtained:
Staphylococcus aureus [1] = conditions: SCV
Staphylococcus aureus [2] = test system: Staphylococcus aureus
Staphylococcus aureus [3] = conditions: SCV; remark: listed apart in the source
Staphylococcus aureus [4] = conditions: SCV, THP-1
Staphylococcus aureus [5] = conditions: SCV, THP-1; remark: listed apart in the source
Staphylococcus aureus [6] = conditions: SCV; remark: listed apart in the source

GENTAMICIN
log10cfu (Staphylococcus aureus [1]): 3
MIC (Staphylococcus aureus [2]): 0.5 µg/mL
log10CFU/ml (Staphylococcus aureus [3]): 2.33
log10cfu (Staphylococcus aureus [4]): -0.58
log10cfu (Staphylococcus aureus [5]): 0.63
log10CFU/ml (Staphylococcus aureus [6]): < -4.5

— ChEMBL document CHEMBL1687729, “Intracellular activity of antibiotics in a model of human THP-1 macrophages infected by a Staphylococcus aureus small-colony variant strain isolated from a cystic fibrosis patient: pharmacodynamic evaluation and comparison with isogenic normal-phenotype and revertant strains” (Antimicrob Agents Chemother, 2009)
